Reference: the kinase profiling compilation of Christmann-Franck et al. (2016)

Amino acid sequences for entries named in this document (tags omitted). A change or cut given only in a name is not applied to a line headed by its entry.
UniProt P23443: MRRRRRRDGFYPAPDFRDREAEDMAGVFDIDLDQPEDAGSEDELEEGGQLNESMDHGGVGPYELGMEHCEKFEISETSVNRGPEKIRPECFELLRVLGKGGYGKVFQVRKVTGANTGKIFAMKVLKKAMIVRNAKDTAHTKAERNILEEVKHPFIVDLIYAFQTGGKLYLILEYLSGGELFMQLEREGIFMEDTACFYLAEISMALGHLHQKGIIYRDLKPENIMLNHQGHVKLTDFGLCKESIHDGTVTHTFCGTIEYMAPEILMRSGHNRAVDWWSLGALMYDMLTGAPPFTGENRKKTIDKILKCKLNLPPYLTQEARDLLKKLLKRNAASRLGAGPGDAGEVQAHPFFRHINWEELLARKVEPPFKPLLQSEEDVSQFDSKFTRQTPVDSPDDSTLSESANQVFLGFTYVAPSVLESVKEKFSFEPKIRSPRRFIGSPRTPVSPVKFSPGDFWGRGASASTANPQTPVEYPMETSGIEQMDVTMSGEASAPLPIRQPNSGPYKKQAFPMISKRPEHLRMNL

Target: RPS6KB1 (human) (UniProt P23443)
Test: radiometric filter-binding kinase assay
Details: ATP 100 µM

## CCc1cncnc1N1CCN(Cc2nc3cc(C(F)(F)F)ccc3[nH]2)CC1
  IC50: 160 nM
